Patent US20220023389A1, “VASODILATORS FOR USE IN THE TREATMENT OF A RETINAL ISCHEMIC DISORDER” (University of Copenhagen, priority 2018, published 2022)
Like-named read-outs stand apart in the source and are kept apart here.

Assays:
[1] = system: ciliary artery; assay: Ciliary artery diameter by fundus imaging, ET-1 induced retinal ischemia; assay type: in vivo, Sprague dawley rat
Description: (§1) Rats were anesthetized with 90 mg/kg ketamine & 10 mg/kg xylazine (i.p). Oxybuprocain 0.4% Anesthetic was applied topically to the eyes.
(§2) Guided under a stereoscopic microscope to avoid lens and retinal injury, 5 μl intravitreal injection of 500 uM ET-1 (Phoenix Pharmaceuticals, Inc.) was performed using a digital controller and UltraMicroPump III, with NanoFil 10 μl syringe (WPI) connected to intraoucular injector with a 34 g bevelled needle.
(§3) Injection was performed through the sclera, inserted approximately 1 mm posterior to the corneal limbus at a 45° angle to avoid contact with the lens capsule and direct the contents, 1.5 mm into the vitreous chamber, in the right eye (FIG. 1). The needle remained in the vitreous cavity for 30 seconds after injection and was then gently withdrawn. A cotton swab was then placed on the injection site to prevent withdrawal of injected solution, and the eye ball was gently massaged to help with the distribution of compound through the vitreous. Antibiotic ointment was applied in the conjunctival sac after the intravitreal injections. The contralateral eye was used as the control eye.
Fundus imaging was performed to document any changes to the retina or vasculature. Animals recover on the heating plate and returned to the stables once awake and resuming normal behavior. The rats are tested according to the following schedule.
(§4) Day 0—ET-1 is administered intravitreally alone or in combination with the current invention. Fundus is recorded before and after injection. Day 3—Animals are anesthetized to perform ERG Measures Day 21—Animals are anesthetized to perform ERG Measures
(§5) Treatment Regimes • A) intravitreal 5 μl PBS (vehicle) 10 min before ET-1 • B) intravitreal 5 μl CGRP (200 μM) 10 min before ET-1 • C) intravitreal 5 μl SNP (500 μM) 10 min before ET-1 • D) topical application 10 μl CGRP (200 μM) before ET-1

[2] = system: retina (photoreceptors, bipolar cells); assay type: in vivo, Sprague dawley rat
Description: as §1, §2, §3, §4, §5
After overnight dark adaptation for at least 12 hours, the animals were anesthetized with 90 mg/kg ketamine and 10 mg/kg xylazine delivered by a single intraperitoneal injection. Then, oxybuprocaine anesthetic was applied topically to the eyes and the pupils dilated with Mydriacyl and Metaoxedrin under dim red-light illumination. The body temperature was maintained with a heating pad set to 37° C. Using a Ganzfeld stimulator, white light flashes (0.0002-100 cd-s/m2) were produced under scotopic conditions. ERGs were recorded from both eyes simultaneously with a gold wire electrode loops, placed on the corneal apex, with a drop of saline applied to the corneal surface for hydration during the testing procedure. A reference electrode was placed in the mouth and a ground electrode inserted sub dermally in the tail of the animal. The scotopic A-wave amplitude and B-wave amplitude were recorded and evaluated.

[3] = in vivo; cited from earlier work
[4] = microvascular vasodilator; cited from earlier work
[5] = day 21, applied intravitreally 10 min before ET-1 (5 μL 500 μM)
[6] = day 21, applied topically (10 μL 200 μM) before intravitreal ET-1

## Calcitonin gene-related peptide [CGRP]
[1]; applied intravitreally (CGRP 5 μL 200 μM; SNP 5 μL 500 μM), before the injection of ET-1
  ciliary artery diameter, increase from baseline: 61±12%
[1]; applied topically to the eye of a Sprague dawley rat, FIG. 5
  dilation of the ciliary artery: more than 20%
[1]; eye pretreated intravitreally 10 min before intravitreal ET-1 (5 μL 500 μM)
  ciliary artery diameter above baseline after applying ET-1: 9±15%
[1]; topical 10 μL 200 μM, visualized after the injection of intravitreal ET-1
  ciliary artery diameter, increase from baseline: 102±21%
[2]; ERG after ET-1 induced ischemia
  effect on retinal function / protection against ET-1 induced ischemia: strong protective effect
[2]; [5]
  B-wave amplitude: 1181±202 μV
  average A-wave amplitude: 545±45 μV
[2]; [6]
  B-wave amplitude: 1088±411 μV
  average A-wave amplitude: 511±100 μV
[2]; rat, in vivo
  observable side effects: without observable side effects
[3]
  half-life: less than 30 minutes
[4]
  vasodilator potency relative to other vasodilators such as ACh (greater): 10-100 times
  vasodilator potency relative to the most potent prostaglandins (higher): ~10 fold
